Yeast mating assay B: variants of the scFv Ab-14

Source: Li et al. 2023 (doi:10.1038/s41467-023-39022-2), MIT Lincoln Laboratory and A-Alpha Bio; data file from the FLAb repository.

Binding partner: SARS-CoV-2 spike HR2 peptide, sequence PDVDLGDISGINAS.

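The starting antibody came from a phage panning campaign against this peptide. Designed CDR sequences, proposed from the first random library and measured here. Their group label is 14L_Ctrl (Ctrl: baseline library sampled from a position-specific scoring matrix, with some repeated check sequences). The assay is AlphaSeq: two haploid yeast populations carry antibody and antigen on their surface. Binding brings cells together so that they mate, and sequencing counts the barcode pairs among the diploids. The ratio of observed to expected reads was calibrated, replicate by replicate, on BCL2-family standards whose Kd was known from biolayer interferometry. The assay was run in six technical replicates.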

Each scFv is VH, the linker GGGGSGGGGSGGGGS, VL, as in the parent Ab-14, and differs from it in the CDRs of the light chain only.
VH: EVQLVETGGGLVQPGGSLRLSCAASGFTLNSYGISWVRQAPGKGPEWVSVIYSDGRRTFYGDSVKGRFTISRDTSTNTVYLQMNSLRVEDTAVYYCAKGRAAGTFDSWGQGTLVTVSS
VL: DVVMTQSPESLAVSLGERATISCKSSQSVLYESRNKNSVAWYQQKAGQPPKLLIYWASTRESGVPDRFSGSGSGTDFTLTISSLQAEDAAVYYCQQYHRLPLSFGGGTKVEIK

Substitutions are numbered in sequence along the VL above, starting at 1 (not Kabat).
Affinities are written as log10 Kd with Kd in nM; a lower number is a better binder.
The mean shown is taken over the replicates in which the pair was detected.
"nd" means that the variant was in the library but no mating with the target was seen in that replicate; the authors take this as a sign of poor binding, and no number exists.
The range of this assay differs from that of the first round, and the authors advise against merging the two.
In the paper, a design with two or fewer of six values counts as a poor binder.
As a blank, each scFv also met three strains without target: over all light chain designs, 4% of these pairings were detected, typically at 2.64 and seldom below 1.59. Also given: how often the same scFv was detected with the empty control strains.

The variant V29H W56S gave 1.22, 1.79, 0.94, 1.49, 1.73, 0.68 (mean 1.31; controls 0 of 18).
The variant L30P S33E R99Q gave nd, 1.90, 1.93, nd, 2.50, nd (mean 2.11; controls 2 of 18).
The variant S25I K36H A57D L102I gave nd, nd, nd, nd, nd, nd (controls 0 of 18).
The variant S25W V29K N35V S62E gave 1.33, nd, 2.06, nd, 1.76, 3.14 (mean 2.07; controls 0 of 18).
The variant Y31D W56H E61S S62R gave nd, 2.12, 2.37, 2.63, 1.55, 1.77 (mean 2.09; controls 1 of 18).
The variant Y31E N35M Q95N gave nd, nd, nd, nd, nd, nd (controls 0 of 18).
The variant S25R S28Q Y31I W56K gave 1.20, 1.09, 0.62, 1.48, 1.05, 1.35 (mean 1.13; controls 2 of 18).
The variant W56G Y97K gave -0.31, -0.24, -0.39, -0.25, 0.02, -0.35 (mean -0.25; controls 0 of 18).
The variant Y31D S33G R34T S62D gave 1.13, 0.91, 0.26, 0.72, 1.00, 0.80 (mean 0.81; controls 0 of 18).
The variant K36Q gave 2.28, 1.83, 2.96, 1.81, 2.68, 2.31 (mean 2.31; controls 1 of 18).
The variant Q27S W56K S62G gave nd, 2.45, 1.76, 3.13, 3.17, 2.74 (mean 2.65; controls 0 of 18).
The variant S26P Q27D V29I A57V gave nd, nd, 1.77, nd, nd, 2.42 (mean 2.09; controls 0 of 18).
The variant S25A Y31G S38N gave 1.23, 1.31, 1.50, 1.24, 1.47, 1.68 (mean 1.40; controls 1 of 18).
The variant Y31K R34N K36G R99H gave 1.74, 1.07, 0.64, 1.09, 0.74, 1.46 (mean 1.12; controls 0 of 18).
The variant R34G W56G gave 0.49, 0.36, 0.21, 0.10, 0.11, 0.40 (mean 0.28; controls 3 of 18).
The variant S25A E32M E61Y H98Y R99T gave nd, 1.91, nd, nd, nd, nd (controls 0 of 18).
The variant N35M N37W W56Q gave nd, nd, nd, nd, nd, nd (controls 0 of 18).
The variant Q96A gave nd, nd, nd, 1.85, nd, nd (controls 2 of 18).
The variant S28A T59L gave 1.46, 1.33, 1.48, 2.10, 1.51, 1.48 (mean 1.56; controls 2 of 18).
The variant S25F S28H E61P gave 1.55, 1.24, 1.68, 1.20, 1.78, 1.63 (mean 1.51; controls 3 of 18).
The variant S28Y L30V W56D gave 1.53, 1.03, 0.56, 0.32, 0.80, 0.76 (mean 0.83; controls 0 of 18).
The variant Q27F S38N W56E gave -0.07, 1.17, 1.40, 2.57, 0.68, 0.34 (mean 1.02; controls 0 of 18).
The variant Q27E S28P R34L gave 1.11, 1.46, 1.31, 1.25, 1.07, 0.77 (mean 1.16; controls 2 of 18).
The variant Y31R R34N S62Y R99G gave nd, nd, nd, nd, nd, nd (controls 0 of 18).
The variant Q27N E32I R34S R99H gave nd, nd, nd, nd, nd, nd (controls 0 of 18).
The variant V29G Y31Q W56S gave 0.35, 0.44, 0.35, 0.37, 0.64, 0.36 (mean 0.42; controls 1 of 18).
The variant Q27P L30I K36E W56S T59K gave -0.05, 0.02, 0.20, 0.00, 0.30, 0.21 (mean 0.11; controls 0 of 18).
The variant L30F K36V W56H E61M Q96A L100F gave nd, 2.38, 2.20, 2.67, 2.62, 2.37 (mean 2.45; controls 3 of 18).
The variant K24A W56G S58T gave 0.64, 0.22, 0.62, 0.61, 0.58, 0.26 (mean 0.49; controls 0 of 18).
The variant K24L V29D S33E K36N W56A Q95Y gave nd, nd, nd, nd, nd, 3.77 (controls 2 of 18).
The variant P101M gave nd, nd, nd, nd, nd, nd (controls 0 of 18).
The variant S25V Q27S E32D S62Y S103L gave 0.81, 0.89, 1.03, 0.66, 0.89, 0.89 (mean 0.86; controls 2 of 18).

Again, the first 5 entries without any signal:

| changes | log10 Kd, replicates | log10 Kd (nM), mean | control signals |
|---|---|---|---|
| S25I K36H A57D L102I | nd, nd, nd, nd, nd, nd | nd | 0/18 |
| Y31E N35M Q95N | nd, nd, nd, nd, nd, nd | nd | 0/18 |
| N35M N37W W56Q | nd, nd, nd, nd, nd, nd | nd | 0/18 |
| Y31R R34N S62Y R99G | nd, nd, nd, nd, nd, nd | nd | 0/18 |
| Q27N E32I R34S R99H | nd, nd, nd, nd, nd, nd | nd | 0/18 |